Assay results taken from patent US5427922A (Takeda Chemical Industries, Ltd., priority 1992, dated 1995).

Tests used:
[1] = biological target: Ang II type 1 receptor from human placenta (Homo sapiens, UniProt P30556); experiment: Radio-labeled Ang II binding activity in animal cells (COS7/pHARp306) expressing full-length Ang II type 1 receptor gene from human placenta; conditions: 10 μM agonist or antagonist added; 100 pM [125I]-Ang II; room temperature, 60 minutes; control (none) 84,148 cpm
[2] = biological target: Ang II type 1 receptor of human heart origin (Homo sapiens, UniProt P30556); experiment: Binding of radiolabeled Ang II (competition) using membrane fraction of control CHO/pHARt306 cells; conditions: [125I]-Ang II, 22° C., 45 minutes
[3] = biological target: Ang II type 1 receptor of human placental origin (Homo sapiens, UniProt P30556); experiment: Binding of radiolabeled Ang II (competition) using membrane fraction of CHO/pHARp306 cells; conditions: [125I]-Ang II, 22° C., 45 minutes

Radioactivity (bound [125I]-labeled Ang II) [1]: 2,326 cpm
Competition; IC50 [-log(M)] [2]: 6.44 -log(M)
Competition; IC50 [-log(M)], column A (second; B in text) [3]: 6.99 -log(M)
SMILES: CC[C@H](C)[C@H](NC(=O)[C@H](Cc1ccc(O)cc1)NC(=O)[C@@H](NC(=O)[C@H](CCCNC(=N)N)NC(=O)[C@@H](N)CC(=O)O)C(C)C)C(=O)N[C@@H](Cc1c[nH]cn1)C(=O)N1CCC[C@H]1C(=O)N[C@@H](Cc1ccccc1)C(=O)N[C@@H](Cc1c[nH]cn1)C(=O)N[C@@H](CC(C)C)C(=O)O
